Data taken from patent US9700633B2, “Conjugates of water soluble polymer-amino acid oligopeptide-drug, preparation method and use thereof” (JENKEM TECHNOLOGY CO. LTD., TIANJIN BRANCH, priority 2013, dated 2017).

Experiments:
[1] = system: human ovarian cancer SKOV-3; assay: Xenografted tumor of human ovarian cancer SKOV-3 in nude mice; conditions: 45 mg/kg, qw × 3w, iv
human lung cancer A549 = assay: Xenografted tumor of human lung cancer A549 in nude mice; conditions: 45 mg/kg, qw × 3w, iv
[2] = system: human colon cancer HCT-116; assay: Xenografted tumor of human colon cancer HCT-116 in nude mice; conditions: iv

CCc1c2c(nc3ccc(OC(=O)N4CCC(N5CCCCC5)CC4)cc13)-c1cc3c(c(=O)n1C2)COC(=O)[C@]3(O)CC [CPT-11, irinotecan hydrochloride]
Body weight, End [1]: 18.4 g | Body weight, Beginning (human lung cancer A549): 18.4 g | Body weight, Beginning ([2]; 15 mg/kg, q3w × 3w): 19.1 g | Body weight, Beginning ([2]; 45 mg/kg, qw × 3w): 19.2 g

Counter-ions that a name gives are not always drawn.
